Measurements reported in patent publication US4762846A (priority 1986, dated 1988).

Amino acid sequences for entries named in this document (tags omitted).
UniProt P33535, whole entry, looked up: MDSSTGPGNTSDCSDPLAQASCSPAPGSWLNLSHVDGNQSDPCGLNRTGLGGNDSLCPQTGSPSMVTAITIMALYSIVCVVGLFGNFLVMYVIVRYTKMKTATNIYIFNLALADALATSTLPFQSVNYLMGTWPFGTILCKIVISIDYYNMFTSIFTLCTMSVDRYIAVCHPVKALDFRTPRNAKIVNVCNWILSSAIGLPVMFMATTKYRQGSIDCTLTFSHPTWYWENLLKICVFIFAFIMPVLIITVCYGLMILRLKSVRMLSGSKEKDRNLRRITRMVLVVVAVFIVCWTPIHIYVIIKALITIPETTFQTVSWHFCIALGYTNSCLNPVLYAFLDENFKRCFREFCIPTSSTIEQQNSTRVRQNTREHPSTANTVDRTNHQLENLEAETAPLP

Key:
muscarinic receptors = assay: [3H]QNB displacement and irreversible loss of binding; set-up: species or system rat; conditions: 0.5 nM [3H]QNB
[1] = test system: benzodiazepine receptors ([3H]diazepam site); assay: [3H]Diazepam displacement and irreversible loss of binding; set-up: species or system rat; conditions: 5 nM [3H]Diazepam
[2] = Behavioral effects of Metaphit alone
opioid receptors = opioid receptors (Rattus norvegicus, UniProt P33535); assay: [3H]Dihydromorphine displacement and irreversible loss of binding

In the case of S=C=Nc1cccc(C2(N3CCCCC3)CCCCC2)c1, the IC50 (muscarinic receptors) is reported as 19 µM, the IC50 [1] is reported as greater than 1000 µM and the behavioral effects ([2]; Metaphit 1 μmol/rat i.c.v.) is reported as “did not produce any significant behavioral effects”. The behavioral effects ([2]; Metaphit 2-8 μmol/rat i.c.v.) was “what appeared to be a calming effect”, the “inhibition of [3H]dihydromorphine binding” value (opioid receptors) was “competitively inhibited” and the “irreversible blockade of opioid receptors” value (opioid receptors) was “no irreversible blockade of opioid receptors could be observed”. For the same compound, the IC50 (opioid receptors; 1 nM [3H]Dihydromorphine) was 11 µM and the “Maximum % Alkylation by 10 uM Metaphit” value (opioid receptors; [3H]Dihydromorphine, 10 uM) was 0%.
